# In PubChem BioAssay AID624115 (Johns Hopkins Ion Channel Center, 2012):
# Only a part is listed here, and it is no random draw. The source made the active and inactive calls.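 Rule for the calls: active = calcium fluorescence ratio at least three times the spread of buffer wells, meaning a non-specific response in parental cells; inactive = the rest.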
# Test: nonspecific Ca2+ signal without MrgX1 expression – cell-based, Fluo-4 calcium flux, duplicate, agonist mode, counter-screen for MrgX1 agonist project, primary screen (AID 624115)
# Details: parental HEK293, Fluo-4 calcium fluorescence (FDSS); at 10 µM; stronger effect = higher value
row,Structure (SMILES),fluorescence ratio F(max-min)/F0
1,CN(C)C1(CNC(=O)c2ccc(Cl)c(S(N)(=O)=O)c2)CCCCC1,inactive: 0
